## AlphaSeq binding of Ab-95 light chain variants to a spike HR2 peptide

All variants were tested on one target, the spike HR2 peptide PDVDLGDISGINAS (SARS-CoV-2).

Each scFv is VH, the linker GGGGSGGGGSGGGGS, VL, as in the parent Ab-95, and differs from it in the CDRs of the light chain only.
VH: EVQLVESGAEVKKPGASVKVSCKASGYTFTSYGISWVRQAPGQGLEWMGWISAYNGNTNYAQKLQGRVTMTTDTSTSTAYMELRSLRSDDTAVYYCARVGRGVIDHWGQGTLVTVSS
VL: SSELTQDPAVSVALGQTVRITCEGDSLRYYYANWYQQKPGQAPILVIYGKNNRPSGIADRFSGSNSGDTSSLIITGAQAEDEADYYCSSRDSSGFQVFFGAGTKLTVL

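The starting antibody came from a phage panning campaign against this peptide. AAYL52 was designed without a model: most single CDR substitutions and a random sample of double and triple ones. AlphaSeq pools MATa yeast showing the antibodies with MATalpha yeast showing the peptide. Mating (16 h, 30 °C) was followed by selection of diploids and sequencing of their barcodes. A regression on co-assayed BCL2-family reference pairs converts the normalised counts of each replicate to an apparent Kd. Each pool was mated in three replicate cultures.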

Variants are written as CDR1, CDR2 and CDR3 of the light chain (limits as in the source). Parent: EGDSLRYYYAN, GKNNRPS, SSRDSSGFQVF.
Values are log10 of the apparent Kd in nM; lower means stronger binding.
A pair that was not seen in that replicate is written "ND"; this usually means weak binding, but a binder can also be missed.

CDR-L1,CDR-L2,CDR-L3,"log10 Kd, replicates",control signals
EGDSLRYYTQN,GKNNRPS,SSRDVSGFQVF,4.12 ND ND,1 of 9 (4.49)
EVDSLRYYYAN,GKNNRPL,SSNDSSGFQVF,ND ND ND,0 of 9
EGDSLRYYQAN,GKNNGPS,SSRDSSGFQTF,3.32 ND 3.32,2 of 9 (3.48)
EGDSLWYYYAN,GKNNRPD,SSRDSVGFQVF,4.51 4.54 ND,5 of 9 (4.60)
EGDSRRYYYAN,GKNNRPS,SSRDSSEFQVF,5.31 5.96 4.73,6 of 9 (3.49)
EGDSLRYYYAQ,GKNNRPS,SSWDSTGFQVF,ND ND ND,0 of 9
ECDSLDMYYAN,GKNNRPS,SSRDSSGFQVF,2.87 2.95 2.58,2 of 9 (3.09)
EGDSLRFYYAN,GKNNRVS,SSRDSSGFEVF,2.70 2.41 2.29,4 of 9 (3.92)
EGDSLRYYMAN,GKGNRQS,SSRDSSGFQVF,2.92 2.35 2.32,0 of 9
EGDSLRYYYMN,GKNNRPS,SSRNDSGFQVF,ND 4.00 3.49,2 of 9 (4.00)
EGDSNRYYYAN,GKNNRPS,SSRDSDGFGVF,ND ND ND,0 of 9
EGISLRYYYAG,GKNNRPG,SSRDSSGFQVF,4.55 3.07 3.58,4 of 9 (3.87)
EGDSLHYYNAN,GKNNRPS,SSRDSSGFQHF,2.01 1.84 1.94,5 of 9 (3.50)
EGDSTRYYYAN,GKNNRPS,SSRDSVGFQVF,ND ND ND,0 of 9
EGDSLRYEYAN,GGNNRRS,SSRDSSGFQVF,1.91 1.95 1.63,2 of 9 (4.69)
TGDSLRYYYAN,GKNPRPS,SSRDSSGRQVF,2.32 2.43 2.16,2 of 9 (3.67)
EGDGLRYYYAN,GKNNYPS,SSRISSGFQVF,ND ND 3.58,0 of 9
EGDSLRYYYAN,GKNNRPS,SSADMSGFTVF,2.72 2.87 2.81,8 of 9 (3.94)
EGDSLRYYYAN,GKQNRPS,SSNDSSGFQGF,3.17 5.15 3.71,5 of 9 (3.96)
AGDSLRYYYAN,TKNNRPS,SSRDSSGCQVF,3.13 ND ND,3 of 9 (3.87)
EGDSLRYYYAN,YKNNRPS,SSRDSDGFDVF,ND ND ND,3 of 9 (3.38)
EGDSLRYYYLN,GLNNRPS,SSRLSSGFQVF,ND 4.66 ND,3 of 9 (3.01)
EGFSLRYYYAN,GKNNRPS,SIRDSSGFQVV,ND 3.98 2.37,0 of 9
EGDSLRVYAAN,GFNNRPS,SSRDSSGFQVF,2.93 3.07 3.54,0 of 9
EGDSLFYYYAN,GKNNRPC,SSRDSSGFQVF,ND 4.52 ND,1 of 9 (3.54)
EHDSLRYYYAN,GKNIVPS,SSRDSSGFQVF,2.78 ND 3.39,2 of 9 (3.40)
EWDSLRYYYAN,MKNGRPS,SSRDSSGFQVF,ND ND ND,2 of 9 (3.60)
NGDSLRYYYAN,GKNNVPS,SSRDSSGFQVF,2.29 2.79 2.11,2 of 9 (3.57)
EGDSLRYYYKN,GKRNRPS,SSRDSSGFEVF,ND ND ND,3 of 9 (4.17)
TGDSLRAYYAV,GKNNRPS,SSRDSSGFQVF,5.24 3.39 ND,4 of 9 (3.95)
EGDSSRYYYAN,GKNNRPL,SRRDSSGFQVF,3.91 3.80 2.91,1 of 9 (4.73)

A selection of 3 entries from above:

{"CDR-L1": "EHDSLRYYYAN", "CDR-L2": "GKNIVPS", "CDR-L3": "SSRDSSGFQVF", "log10 Kd, replicates": "2.78 ND 3.39", "control signals": "2 of 9 (3.40)"}
{"CDR-L1": "EGDSLRYYYAQ", "CDR-L2": "GKNNRPS", "CDR-L3": "SSWDSTGFQVF", "log10 Kd, replicates": "ND ND ND", "control signals": "0 of 9"}
{"CDR-L1": "ECDSLDMYYAN", "CDR-L2": "GKNNRPS", "CDR-L3": "SSRDSSGFQVF", "log10 Kd, replicates": "2.87 2.95 2.58", "control signals": "2 of 9 (3.09)"}

Three control strains display no target. For library AAYL52, 28% of the pairings with them gave a signal, with a median of 3.91 and one signal in twenty below 2.90, so weak values seen in few replicates may be background. The control count says in how many pairings with the empty strains this scFv gave a signal, with their mean in brackets.
In this assay the parent's reference entry averaged 2.31; its copy inside this library read 2.25.

Reference: Engelhart et al. 2022, doi:10.1038/s41597-022-01779-4. File: FLAb, binding data.